This note sets out measurements from ChEMBL document CHEMBL1152804, “Relationship between brain tissue partitioning and microemulsion retention factors of CNS drugs” (J Med Chem, 2009).

As usually defined, the pKa is the negative logarithm of the acid dissociation constant. A higher pKa goes with a group that holds its proton tightly. What is called logD is the decadic logarithm of the distribution of all forms, ionised or not, between an organic phase and buffer at a given pH. Read a low logD as lower lipophilicity.

Series [1] in a line: Dissociation constant, pKa by capillary electrophoresis. The class given is physicochemical.
Series [2] is described as follows: physchem. The following applies: buffer, pH 7.4.

For the compound `Cc1nc2n(c(=O)c1CCN1CCC(c3noc4cc(F)ccc34)CC1)CCCC2` [RISPERIDONE], the pKa in series [1] stood at 8.63. In the case of `Cc1cc2c(s1)Nc1ccccc1N=C2N1CCN(C)CC1` [OLANZAPINE], in series [2], the logD came to 1.9.
